Measured values published in patent US9873693B2 (Sunesis Pharmaceuticals, Inc., priority 2006, dated 2018).

Chains of the proteins cited; added tags and fusions are not shown. Residues count along the entry.
UniProt O15530, 51-360: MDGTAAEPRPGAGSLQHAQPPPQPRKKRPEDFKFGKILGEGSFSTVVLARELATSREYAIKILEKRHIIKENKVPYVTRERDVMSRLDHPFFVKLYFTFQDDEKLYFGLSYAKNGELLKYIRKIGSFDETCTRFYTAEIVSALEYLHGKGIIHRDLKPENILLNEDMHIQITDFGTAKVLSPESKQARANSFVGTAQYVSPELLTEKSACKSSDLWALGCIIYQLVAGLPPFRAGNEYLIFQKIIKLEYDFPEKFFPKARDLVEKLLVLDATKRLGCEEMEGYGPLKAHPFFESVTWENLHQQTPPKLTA

Biological target: phosphorylated PDK1 (Homo sapiens (Human), UniProt O15530)
Assay: PDK1 kinase assay (coupled PDK1/AKT/FAM-crosstide, IMAP)
Type: biochemical
Settings: 0.5 nM phosphorylated PDK1, 24 μM ATP; read-out: Inhibition of phospo-PDK1 in vitro IC50

Q: O=C(NC(COc1ccc2[nH]c(=O)[nH]c2c1)c1cccnc1)c1cccn(Cc2cc(F)c(F)c(F)c2)c1=O (stereo not shown) [Cpd 163] was tested. Which IC50 did it give?
A: The IC50 was < 0.5 µM.
